Laboratory results taken from US9587005B2 (priority 2010, dated 2017).

Protein sequences, listed by entry. Tags and fused reporters are not part of them. Residues count along the entry.
UniProt P43220, 24-463: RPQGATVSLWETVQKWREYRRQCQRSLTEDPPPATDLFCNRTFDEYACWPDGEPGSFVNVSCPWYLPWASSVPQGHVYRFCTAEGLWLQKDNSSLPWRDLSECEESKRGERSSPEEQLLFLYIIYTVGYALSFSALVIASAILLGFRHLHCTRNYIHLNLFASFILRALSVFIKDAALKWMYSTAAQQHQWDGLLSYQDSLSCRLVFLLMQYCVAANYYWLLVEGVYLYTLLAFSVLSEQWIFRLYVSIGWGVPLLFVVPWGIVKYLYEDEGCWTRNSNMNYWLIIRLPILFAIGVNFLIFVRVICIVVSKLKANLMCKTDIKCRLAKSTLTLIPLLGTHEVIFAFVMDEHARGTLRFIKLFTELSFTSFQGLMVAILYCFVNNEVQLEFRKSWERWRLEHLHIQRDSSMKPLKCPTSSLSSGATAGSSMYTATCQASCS
UniProt P47871, 26-477: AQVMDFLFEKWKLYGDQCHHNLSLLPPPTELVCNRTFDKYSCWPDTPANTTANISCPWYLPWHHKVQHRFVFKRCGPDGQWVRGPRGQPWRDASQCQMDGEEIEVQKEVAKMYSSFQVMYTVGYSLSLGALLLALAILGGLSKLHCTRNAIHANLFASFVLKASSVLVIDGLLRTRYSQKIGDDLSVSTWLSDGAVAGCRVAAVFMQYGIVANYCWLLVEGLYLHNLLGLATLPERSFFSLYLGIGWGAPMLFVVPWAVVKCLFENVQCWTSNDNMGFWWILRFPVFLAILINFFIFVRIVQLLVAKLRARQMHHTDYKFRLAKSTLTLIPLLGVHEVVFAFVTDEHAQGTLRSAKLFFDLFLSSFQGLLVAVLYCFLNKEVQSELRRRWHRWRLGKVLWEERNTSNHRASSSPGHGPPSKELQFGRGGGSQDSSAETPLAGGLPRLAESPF

Tests used:
Type in all cases: cell-based
GLP-1 receptor = target: T1, GLP-1 receptor (Homo sapiens, UniProt P43220); assay: cAMP induction, firefly luciferase reporter assay in HEK293 cells co-transfected with GLP-1 receptor
T1 construct: expressed in transfected cells; host or cells: HEK293
Excerpt: (§1) This example describes an exemplary method of testing the biological activity of the peptides of the present disclosures, which method involves assaying cAMP synthesis.

glucagon receptor = target: T2, glucagon receptor (Homo sapiens, UniProt P47871); assay: cAMP induction, firefly luciferase reporter assay in HEK293 cells co-transfected with glucagon receptor
T2 construct: expressed in transfected cells; host or cells: HEK293
Excerpt: as §1

GIP receptor = target: T3, GIP receptor (Homo sapiens, UniProt P48546); assay: cAMP induction, firefly luciferase reporter assay in HEK293 cells co-transfected with GIP receptor
T3 sequence (P48546 22-466): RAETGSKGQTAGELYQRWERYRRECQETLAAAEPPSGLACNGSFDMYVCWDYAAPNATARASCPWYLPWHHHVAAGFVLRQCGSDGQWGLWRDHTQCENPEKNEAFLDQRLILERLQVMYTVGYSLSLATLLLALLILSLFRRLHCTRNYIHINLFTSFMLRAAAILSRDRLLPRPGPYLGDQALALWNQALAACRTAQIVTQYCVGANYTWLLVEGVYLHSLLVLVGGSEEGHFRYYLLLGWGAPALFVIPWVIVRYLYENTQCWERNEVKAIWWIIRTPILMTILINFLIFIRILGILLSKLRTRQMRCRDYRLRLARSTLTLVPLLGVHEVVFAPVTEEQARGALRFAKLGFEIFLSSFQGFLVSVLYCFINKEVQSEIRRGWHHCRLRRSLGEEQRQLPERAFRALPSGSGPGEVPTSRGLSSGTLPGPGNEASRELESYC

| Structure (SMILES) | EC50 (GLP-1 receptor; GLP-1 Receptor EC50, Table 10, Example 16) [pM] | EC50 (glucagon receptor) [pM] | EC50 (GIP receptor; GIP-1 Receptor EC50, Table 10, Example 16) [pM] | EC50 (GLP-1 receptor; GLP-1 Receptor (EC50), Table 13, Example 20) [pM] | EC50 (GIP receptor; GIP Receptor (EC50), Table 13, Example 20) [pM] |
| --- | --- | --- | --- | --- | --- |
| CCCCCCCCCCCCCCCC(=O)N[C@@H](CCC(=O)Nc1ccc(C[C@H](NC(=O)[C@H](CC(=O)O)NC(=O)[C@H](CO)NC(=O)[C@@H](NC(=O)[C@H](Cc2ccccc2)NC(=O)[C@@H](NC(=O)CNC(=O)[C@H](CCC(N)=O)NC(=O)C(C)(C)NC(=O)[C@@H](N)Cc2c[nH]cn2)[C@@H](C)O)[C@@H](C)O)C(=O)N[C@@H](CO)C(=O)N[C@@H](CCCCN)C(=O)N[C@@H](Cc2ccc(O)cc2)C(=O)N[C@@H](CC(C)C)C(=O)N[C@@H](CC(=O)O)C(=O)N[C@@H](CCC(=O)O)C(=O)N[C@@H](CCCNC(=N)N)C(=O)N[C@@H](C)C(=O)N[C@@H](C)C(=O)N[C@@H](CCC(N)=O)C(=O)N[C@@H](CC(=O)O)C(=O)N[C@@H](Cc2ccccc2)C(=O)N[C@H](C(=O)N[C@@H](CCC(N)=O)C(=O)N[C@@H](Cc2c[nH]c3ccccc23)C(=O)N[C@@H](CC(C)C)C(=O)N[C@@H](CC(C)C)C(=O)N[C@@H](CC(=O)O)C(=O)NCC(=O)NCC(=O)N2CCC[C@H]2C(=O)N[C@@H](CO)C(=O)N[C@@H](CO)C(=O)NCC(=O)N[C@@H](C)C(=O)N2CCC[C@H]2C(=O)N2CCC[C@H]2C(=O)N2CCC[C@H]2C(=O)N[C@@H](CO)C(N)=O)C(C)C)cc1)C(=O)O [SEQ ID NO: 148] | 9 | 8 | 9 | – | – |
| CCCCCCCCCCCCCCC(SC[C@H](NC(=O)[C@H](CO)NC(=O)[C@@H]1CCCN1C(=O)[C@@H]1CCCN1C(=O)[C@@H]1CCCN1C(=O)[C@H](C)NC(=O)CNC(=O)[C@H](CO)NC(=O)[C@H](CO)NC(=O)[C@@H]1CCCN1C(=O)CNC(=O)CNC(=O)[C@H](CC(=O)O)NC(=O)[C@H](CC(C)C)NC(=O)[C@H](CC(C)C)NC(=O)[C@H](Cc1c[nH]c2ccccc12)NC(=O)[C@H](CCC(N)=O)NC(=O)[C@@H](NC(=O)[C@H](Cc1ccccc1)NC(=O)[C@H](CC(=O)O)NC(=O)[C@H](CCC(N)=O)NC(=O)[C@H](C)NC(=O)[C@H](C)NC(=O)[C@H](CCCNC(=N)N)NC(=O)[C@H](CCC(=O)O)NC(=O)[C@H](CC(=O)O)NC(=O)[C@H](CC(C)C)NC(=O)[C@H](Cc1ccc(O)cc1)NC(=O)[C@H](CCCCN)NC(=O)[C@H](CO)NC(=O)[C@H](Cc1ccc(O)cc1)NC(=O)[C@H](CC(=O)O)NC(=O)[C@H](CO)NC(=O)[C@@H](NC(=O)[C@H](Cc1ccccc1)NC(=O)[C@@H](NC(=O)CNC(=O)[C@H](CCC(N)=O)NC(=O)C(C)(C)NC(=O)[C@@H](N)Cc1c[nH]cn1)[C@@H](C)O)[C@@H](C)O)C(C)C)C(N)=O)C(=O)O (stereo partly drawn) [SEQ ID NO: 164] | – | 6 | – | 3 | 28 |
